What was measured:
cynomolgus monkeys = assay: Acute toxicity in cynomolgus monkeys; type: in vivo; settings: single i.v. 0.5, 1.5 and 5.0 mg/kg
Description: Peptide (II) having a purity of 98.3% which was obtained in Reference Example 1 was dissolved in a physiological saline to prepare three preparations 1, having peptide (II) concentrations of 0.1 mg/ml, 0.3 mg/ml and 1.0 mg/ml, respectively. As a control, the physiological saline was used.
Approximately 3 to 6 year-old cynomolgus monkeys of both sexes were purchased from American Charles River Research Primates, Ltd., U.S.A. The animals were bred for approximately 6 months and then observed one week during quarantine and acclimation. From the purchased monkeys, 6 male monkeys and 6 female monkeys (males weighing 2.31 to 4.22 kg and females weighing 2.45 to 2.66 kg) which were healthy and in good condition in respect of both the clinical signs and the body weight gain were selected from the purchased monkeys and used for the following experiment.
The selected monkeys were divided at random into three groups each consisting of two males and two females.
Each of the above-prepared three test drug solutions containing peptide (II) at concentrations of 0.1 mg/ml, 0.3 mg/ml and 1.0 mg/ml, respectively, was individually administered at one time to the monkeys of the three groups at a dosage of 5 ml/kg of body weight. That is, the peptide was administered to the monkeys of the three groups at dosages of 0.5 mg/kg, 1.5 mg/kg and 5.0 mg/kg of body weight, respectively. To the monkeys of the remaining group, physiological saline was administered as a control at a dosage of 5 ml/kg of body weight. The administration of each of the test drug solutions and the physiological saline was conducted through the median antebrachial vein of each monkey at an administration rate of 10 ml/min.
The amounts of the food supplied and the food remaining were measured daily by means of a balance, and the food consumption per animal was calculated.
The body weight of each animal was measured by means of a balance at a time between 2 p.m. and 4 p.m. daily.
The animals were exsanguinated under sodium pentobarbital anesthesia on the day after the two-week observation period. Then, various organs and tissues of the animals were observed by gross autopsy.
The weights of various organs of the animals were measured by means of an electronic balance.

[1] = test system: ischemic cerebral edema caused by occlusion of middle cerebral artery; assay: Effect on experimental ischemic cerebral edema (MCA occlusion, Tamura model); type: in vivo, male Wistar rats; settings: rats
Description: Using 41 male Wistar rats weighing 250 to 350 g, model animals of ischemic cerebral edema caused by occlusion of middle cerebral artery (hereinafter referred to as "MCA") were prepared according to the method of Tamura et al. (Journal of Cerebral Blood Flow and Metabolism, 1, 53-69 (1981)).
Peptide (II) obtained in Reference Example 1 was diluted with a physiological saline so that the peptide concentration became 100 μg/10 ml. The solution containing the peptide was continuously administered to eleven rats through the tail vein thereof in an amount of 10 ml per kg of body weight in 20 min so that the total dose of the administered peptide became 100 μg per kg of body weight.
The administration was conducted 6 times according to the following program. The first administration was conducted 30 minutes after the occlusion of MCA. The second administration was conducted in the morning of the next day of the first administration (2nd day). The third administration was conducted after 6 hours from the second administration. The fourth administration was conducted in the morning of the next day of the third administration (3rd day). […]
After one hour from the sixth administration, that is, 3 days after the rats had been subjected to occlusion of MCA, the rats were sacrificed. […] The water content of each of the hemispheres was measured.
The water content of a brain tissue was calculated by the following formula: [formula] wherein: W1 : weight of the cerebral hemisphere (wet basis)
W2 weight of the cerebral hemisphere (dry basis), which is measured after drying the wet cerebral hemisphere at 95° to 100° C. for 3 days.
The water contents calculated were statistically analyzed by the T-test to determine whether or not there is a significant difference between the water content of each of the groups to which peptide (II), peptide (III) and glycerol were individually administered and the water content of the control group to which physiological saline was administered. […]

[2] = 3 days after MCA occlusion, peptide 100 μg/kg (glycerol 1 g/kg) tail vein, 6 administrations

SMILES: CC[C@H](C)[C@@H]1NC(=O)[C@H](CCCNC(=N)N)NC(=O)[C@H](CC(=O)O)NC(=O)[C@H]([C@@H](C)CC)NC(=O)[C@H](CCCNC(=N)N)NC(=O)CNC(=O)CNC(=O)[C@H](Cc2ccccc2)NC(=O)[C@@H](NC(=O)[C@H](CO)NC(=O)[C@H](CO)NC(=O)[C@H](CCCNC(=N)N)NC(=O)[C@H](CCCNC(=N)N)NC(=O)[C@H](CC(C)C)NC(=O)[C@@H](N)CO)CSSC[C@@H](C(=O)N[C@@H](CC(N)=O)C(=O)N[C@@H](CO)C(=O)N[C@@H](Cc2ccccc2)C(=O)N[C@@H](CCCNC(=N)N)C(=O)N[C@@H](Cc2ccc(O)cc2)C(=O)O)NC(=O)CNC(=O)[C@H](CC(C)C)NC(=O)CNC(=O)[C@H](CO)NC(=O)[C@H](CCC(N)=O)NC(=O)[C@H](C)NC(=O)CNC1=O [Peptide (II)]
- Organ weight (cynomolgus monkeys; after two-week observation): No remarkable change
- Patho-anatomical examination (cynomolgus monkeys; gross autopsy after two-week observation): No remarkable change
- Change in body weight (cynomolgus monkeys; two-week observation): No remarkable change
- Clinical signs (cynomolgus monkeys; two-week observation): No remarkable change
- Clinical signs: death of animals (cynomolgus monkeys; two-week observation): No dead animal
- Food consumption (cynomolgus monkeys; two-week observation): No remarkable change
- Water content of brain tissue (the mean ± standard error), hemisphere having ischemic part [1, 2]: 79.34 ± 0.15
- Water content of brain tissue (the mean ± standard error), hemisphere having no ischemic part [1, 2]: 78.51 ± 0.15
- increase in water content of the cerebral hemisphere having ischemic part, compared to physiological saline-administered group ([1]; MCA occlusion, T-test): significantly inhibited

Reference: patent US5204327A, “Treatment of cerebral edema with ANP pharmaceutical compositions” (Ashi Kasei Kogyo Kabushiki Kaisha, priority 1988, dated 1993)
